These are literature values, as cited in patent US20250135049A1, “Methods for Biological Material Labeling and Medical Imaging” (Mayo Foundation for Medical Education and Research, priority 2021, published 2025).

In this series the test system is mouse melanoma, mouse dendritic cells and human mesenchymal stem cells. As to conditions: 7 days-post radiolabeling; Ref. 2; cited from earlier work.

Regarding “[^89Zr] zirconium-p-isothiocyanatobenzyl-desferrioxamine [[^89Zr] Zr-DBN]”, the “efflux of free ^89Zr overtime” value was “insignificant efflux”.
